Reference: patent US5478807A, “Use of relaxin in the treatment of bradycardia” (Genentech, Inc., priority 1992, dated 1995)

System: rat isolated heart
Experiment: Chronotropy and inotropy in Langendorff rat isolated heart
Details: doses above 150 pMol

## CNCC(O)c1ccc(O)c(O)c1.O=C(O)C(O)C(O)C(=O)O (stereo not shown) [adrenaline, Adrenaline bitartrate, reference compound]
  arrhythmia at higher doses: excessive arrythmia
